Values quoted from earlier work in publication PMC8081377 (Mutagenesis, 2021).

System: bacterial strains (Std strains, TA102, E. coli)
Settings: only in the presence of metabolic activation; ref Supplementary Table S1; cited from earlier work

## C1=Cc2cc3cccc4ccc5ccc1c2c5c43 [Cyclopenta[c,d]pyrene (CPPE), Cyclopenta[c,d]pyrene]
  Ames assay: positive
